Results on 16 compounds are retold here after ChEMBL document CHEMBL1641510, “Mono-oxime bisquaternary acetylcholinesterase reactivators with prop-1,3-diyl linkage-Preparation, in vitro screening and molecular docking” (2011).

Sequences of proteins named here, by UniProt entry; tags and fusion partners are left off. A change or cut given only in a name is not applied to a line headed by its entry.
UniProt P22303: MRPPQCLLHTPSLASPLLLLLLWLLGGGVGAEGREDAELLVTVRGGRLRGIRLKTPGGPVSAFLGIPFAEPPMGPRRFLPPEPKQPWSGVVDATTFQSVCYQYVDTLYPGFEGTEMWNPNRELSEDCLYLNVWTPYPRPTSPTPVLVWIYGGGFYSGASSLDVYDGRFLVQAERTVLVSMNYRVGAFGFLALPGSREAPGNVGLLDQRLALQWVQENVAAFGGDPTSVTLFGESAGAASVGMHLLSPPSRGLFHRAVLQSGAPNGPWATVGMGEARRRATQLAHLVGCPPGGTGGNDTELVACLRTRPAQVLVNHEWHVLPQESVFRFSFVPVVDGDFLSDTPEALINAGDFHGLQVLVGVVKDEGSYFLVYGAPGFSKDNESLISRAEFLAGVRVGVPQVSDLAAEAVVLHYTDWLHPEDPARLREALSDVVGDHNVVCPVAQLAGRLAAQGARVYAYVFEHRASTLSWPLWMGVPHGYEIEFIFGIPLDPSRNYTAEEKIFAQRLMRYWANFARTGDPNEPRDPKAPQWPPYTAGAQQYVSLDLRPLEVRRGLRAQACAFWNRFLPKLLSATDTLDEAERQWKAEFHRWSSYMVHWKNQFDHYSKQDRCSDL

Experiment [1] addresses Acetylcholinesterase (Homo sapiens) (UniProt P22303). The experiment can be described thus: Reactivation of POX-mediated inactive human recombinant AChE at 10 uM after 15 mins by Ellman's method. A general note: Ellman's reagent forms a yellow product with free thiols.
For experiment [2] the target is unchanged. The experiment can be described thus: Reactivation of GA-mediated inactive human recombinant AChE at 10 uM after 15 mins by Ellman's method.
For experiment [3] the target is unchanged. The experiment can be described thus: Reactivation of DEP-mediated inactive human recombinant AChE at 10 uM after 15 mins by Ellman's method.
Experiment [4] shares this target. Description: Reactivation of MePOX-mediated inactive human recombinant AChE at 100 uM after 15 mins by Ellman's method.
For experiment [5] the target is unchanged. The experiment can be described thus: Reactivation of MePOX-mediated inactive human recombinant AChE at 10 uM after 15 mins by Ellman's method.
The target is the same in experiment [6]. Description: Reactivation of POX-mediated inactive human recombinant AChE at 100 uM after 15 mins by Ellman's method.
For experiment [7] the target is unchanged. The experiment can be described thus: Reactivation of DEP-mediated inactive human recombinant AChE at 100 uM after 15 mins by Ellman's method.
Experiment [8] has the same target. Description: Reactivation of GA-mediated inactive human recombinant AChE at 100 uM after 15 mins by Ellman's method.

On to `N/C(=N\O)c1cc[n+](CCC[n+]2ccc(/C=N/O)cc2)cc1`, for which the Activity came to 38.9% in experiment [1]; 8.9% in experiment [2]; 1.3% in experiment [3]; 37.2% in experiment [4]; 52.2% in experiment [5]; 72.2% in experiment [6]. Further, the results for the Activity in experiment [7] and in experiment [8] were 3.1% and 9.6%, respectively.

In the case of `CCOC(=O)c1cc[n+](CCC[n+]2ccc(/C=N/O)cc2)cc1`, the Activity in experiment [1] was 20.2%; in experiment [2], 8.2%; in experiment [3], 1.3%; in experiment [4] it was 15.3%; in experiment [5], 28.1%; in experiment [6], 51.4%. Moreover, the Activity is 1.9% in experiment [7] and 8.8% in experiment [8].

`O/N=C/c1cc[n+](CCC[n+]2ccc3ccccc3c2)cc1`: the Activity in experiment [1] amounted to 6.7%; in experiment [2], 4.2%; in experiment [3], 0.8%; in experiment [4], 18.5%; in experiment [5], 7.9%; in experiment [6] it was 4.6%. Moreover, the Activity in experiment [7] turned out to be 0.6%; in experiment [8] it was 3%.

`O/N=C/c1cc[n+](C[n+]2ccc(/C=N/O)cc2)cc1`: the Activity in experiment [1] came to 1.8%; in experiment [3], 0.6%; in experiment [4], 14.2%; in experiment [5], 14.3%; in experiment [6], 16.1%; in experiment [7], 2.4%.

With `NC(=O)c1cc[n+](CCC[n+]2ccc(/C=N/O)cc2)cc1`, the Activity was determined as 20.8% in experiment [1]; 7.8% in experiment [2]; 2.1% in experiment [3]; 55.6% in experiment [4]; 48% in experiment [6]; 5.7% in experiment [7]. Moreover, the Activity in experiment [8] stood at 15.2%.

On to `NC(=O)c1cc[n+](CCC[n+]2ccc(/C=N/O)cc2)cc1C(N)=O`, for which the Activity in experiment [1] is 29%; in experiment [2], 4.4%; in experiment [3], 0.3%; in experiment [4] it was 10.3%; in experiment [5] it was 2.6%; in experiment [6], 9.9%. For the same compound, the Activity in experiment [7] came to 0.6%; in experiment [8], 5.4%.

Regarding `O/N=C/c1cc[n+](CCC[n+]2ccccn2)cc1`, the Activity in experiment [1] is 18.8%; in experiment [2], 4.5%; in experiment [3], 16.8%; in experiment [4], 8.8%; in experiment [5] it was 6.6%; in experiment [6] it was 26%. The results for the Activity in experiment [7] and in experiment [8] were 1.2% and 5.3%, respectively.

For the compound `O=C(O)c1cc[n+](CCC[n+]2ccc(/C=N/O)cc2)cc1`, the Activity in experiment [1] was 30.7%; in experiment [2], 4.2%; in experiment [3], 1.4%; in experiment [4], 7.5%; in experiment [5] it was 3.1%; in experiment [6] it was 17%. The results for the Activity in experiment [7] and in experiment [8] were 6.2% and 9.1%, respectively.

Regarding `O/N=C/c1cc[n+](CCC[n+]2ccc(-c3ccccc3)cc2)cc1`, the Activity in experiment [1] came to 21%; in experiment [2], 11.2%; in experiment [3], 2.3%; in experiment [4], 31.6%; in experiment [5], 16.6%; in experiment [6], 23.2%. The Activity is 3.9% in experiment [7] and 10.1% in experiment [8].

On to `N#Cc1cc[n+](CCC[n+]2ccc(/C=N\O)cc2)cc1`, for which the Activity was found to be 23.4% in experiment [1]; 5.9% in experiment [2]; 7.4% in experiment [3]; 24.2% in experiment [4]; 4% in experiment [5]; 15.8% in experiment [6]. The results for the Activity in experiment [7] and in experiment [8] were 12.7% and 6.2%, respectively.

In the case of `O/N=C/c1cc[n+](CCC[n+]2cccc3ccccc32)cc1`, the Activity came to 7.5% in experiment [1]; 2.6% in experiment [2]; 1.2% in experiment [3]; 8.3% in experiment [4]; 9.5% in experiment [5]; 5.1% in experiment [6]. The Activity in experiment [7] came out at 0.8%; in experiment [8], 0.6%.

With `CC(C)(C)c1cc[n+](CCC[n+]2ccc(/C=N/O)cc2)cc1`, the Activity in experiment [1] is 0.6%; in experiment [2] it was 5.3%; in experiment [3] it was 0.1%; in experiment [4] it was 6.8%; in experiment [5], 4.9%; in experiment [6], 16.7%. In addition, the values for the Activity in experiment [7] and in experiment [8] were 1.1% and 3.4%, respectively.

Consider `OCc1cc[n+](CCC[n+]2ccc(/C=N/O)cc2)cc1`, for which the Activity in experiment [1] came out at 7.6%; in experiment [2], 3.6%; in experiment [3], 0.7%; in experiment [4] it was 11.3%; in experiment [5], 3.5%; in experiment [6], 13.7%. Also, the Activity in experiment [7] and in experiment [8] was 1.8% in each case.

For `CC(=O)c1cc[n+](CCC[n+]2ccc(/C=N/O)cc2)cc1`, the Activity in experiment [1] is 13.3%; in experiment [2] it was 12.9%; in experiment [3] it was 0.1%; in experiment [4], 10.7%; in experiment [5], 31.2%; in experiment [6] it was 55.2%. The Activity is 1.8% in experiment [7] and 12.1% in experiment [8].

Take `Cc1cc[n+](CCC[n+]2ccc(/C=N/O)cc2)cc1`: the Activity was 23.8% in experiment [1]; 3.3% in experiment [2]; 11.1% in experiment [3]; 14.3% in experiment [4]; 4.6% in experiment [5]; 15.9% in experiment [6]. Besides, the Activity was 13.1% in experiment [7] and 3.8% in experiment [8].

As to `O/N=C/c1cc[n+](CCC[n+]2ccccc2)cc1`, the Activity in experiment [1] stood at 13%; in experiment [2] it was 4.4%; in experiment [3], 1.7%; in experiment [4], 9.3%; in experiment [5] it was 6%; in experiment [6], 28.4%. The Activity in experiment [7] stood at 6.4%; in experiment [8], 5.3%.
